# Assay results taken from PubChem BioAssay AID624125 (The Scripps Research Institute Molecular Screening Center, 2012).
# By UniProt entry, the sequences of proteins in these tests, tags left out.
# UniProt P08173, whole entry: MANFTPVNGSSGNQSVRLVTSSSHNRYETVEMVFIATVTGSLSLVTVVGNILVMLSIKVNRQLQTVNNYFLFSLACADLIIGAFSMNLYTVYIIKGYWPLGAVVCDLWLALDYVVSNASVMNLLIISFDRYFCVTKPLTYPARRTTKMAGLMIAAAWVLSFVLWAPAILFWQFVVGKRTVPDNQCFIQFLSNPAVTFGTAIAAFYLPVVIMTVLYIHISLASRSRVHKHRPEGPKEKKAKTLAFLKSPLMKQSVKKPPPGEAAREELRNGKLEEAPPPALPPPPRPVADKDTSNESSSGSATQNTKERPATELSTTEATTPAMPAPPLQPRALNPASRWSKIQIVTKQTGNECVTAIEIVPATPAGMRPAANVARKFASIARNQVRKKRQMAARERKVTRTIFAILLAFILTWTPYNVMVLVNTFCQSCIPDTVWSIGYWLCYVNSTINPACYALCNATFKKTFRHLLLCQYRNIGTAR
# Only a part is listed here, and it is no random draw. Some salts and complexes are drawn in separate pieces, as the source files them; their charges need not balance. Activity calls are given as the source filed them.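 How the source made its calls: active means inhibition above its plate's cutoff, the mean inhibition of sample wells plus 3 SD (cut at about 27% in these data); inactive means the rest.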
# Molecular target: Muscarinic acetylcholine receptor M4 (Homo sapiens) (UniProt P08173)
# Experiment: CHRM4 blockers of acetylcholine calcium response – CHO cells, Fluo-8 calcium fluorescence, primary screen (AID 624125);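 further: 0% = acetylcholine EC80 with DMSO and 100% = DMSO without agonist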
# Conditions: CHO-hM4 cells, ACh EC80, Fluo-8 calcium fluorescence; at 3 µM; hits give high values
row,Compound,inhibition
1,O=C1C(O)=C([N+](=O)[O-])C(=O)C(O)=C1[N+](=O)[O-],inactive: 0.02%
2,COc1ccc(OP(C)(=O)Nc2ccccc2Br)cc1 (stereo unspecified),inactive: -5.57%
3,COc1ccccc1OP(C)(=O)Nc1ccc(C)c(C)c1 (stereo unspecified),inactive: 9.93%
4,O=[N+]([O-])c1cc([N+](=O)[O-])c(Nc2ccccn2)c([N+](=O)[O-])c1,inactive: 13.6%
5,Cc1c(NP(C)(=O)Oc2ccc(C(C)C)cc2)c(=O)n(-c2ccccc2)n1C (stereo unspecified),inactive: -3.65%
6,CCc1ccc(OP(C)(=O)O)cc1,inactive: -2.8%
7,COc1ccccc1OP(C)(=O)Nc1ccc(C)cc1C (stereo unspecified),inactive: 1.64%
8,CP(=O)(Nc1ccccn1)Oc1ccccc1 (stereo unspecified),inactive: -6.6%
9,COc1ccccc1OP(C)(=O)Nc1ccc(Br)cc1 (stereo unspecified),inactive: -3.87%
10,COc1ccc(OP(C)(=O)Nc2ccccn2)cc1 (stereo unspecified),inactive: -8.53%
11,CP(=O)(Nc1ccc(Cl)cc1)Oc1ccc(F)cc1 (stereo unspecified),inactive: -6.19%
12,CC(C)(C)c1ccc(OP(C)(=O)O)cc1,inactive: -0.41%
13,COc1ccccc1OP(C)(=O)Nc1ccccc1Br (stereo unspecified),inactive: -6.88%
14,CN(C)C(=O)c1c([N+](=O)[O-])cc([N+](=O)[O-])cc1[N+](=O)[O-],inactive: -12.3%
15,COc1ccc(OP(C)(=O)Nc2ccc(Br)cc2)cc1 (stereo unspecified),inactive: -6.22%
16,CCc1ccc(OP(C)(=O)Nc2cccnc2)cc1 (stereo unspecified),inactive: -12.5%
17,CP(=O)(Oc1ccccc1)N1CCOC1=O (stereo unspecified),inactive: 7.3%
18,COc1ccccc1OP(C)(=O)Nc1c(C)n(C)n(-c2ccccc2)c1=O (stereo unspecified),inactive: -4.32%
19,CP(=O)(OC12CC3CC(CC(C3)C1)C2)OC12CC3CC(CC(C3)C1)C2,inactive: -9.47%
20,CCOC(=O)c1ccc(NP(C)(=O)Oc2ccc(Cl)cc2)cc1 (stereo unspecified),inactive: -5.09%
21,O=[N+]([O-])c1cc([N+](=O)[O-])c(NCC2CCS(=O)(=O)C2)c([N+](=O)[O-])c1 (stereo unspecified),inactive: -1.91%
22,Cc1cc(-c2cccc3ccccc23)c(C)cn1.O=[N+]([O-])c1cc([N+](=O)[O-])c(O)c([N+](=O)[O-])c1,inactive: -3.4%
23,O=[N+]([O-])c1ccc(OP2(=O)COCCO2)cc1 (stereo unspecified),inactive: -1.04%

row,Compound,inhibition
1,O=C(OC1CN2CCC1CC2)c1cccc(Cl)c1 (stereo unspecified),active: 47.7%
2,Cc1c(C(c2ccc3c(c2)OCO3)c2c(C)n(C)n(-c3ccccc3)c2=O)c(=O)n(-c2ccccc2)n1C.O=[N+]([O-])c1cc([N+](=O)[O-])c(O)c([N+](=O)[O-])c1,inactive: 6%
3,CN(C)C1(CNC(=O)c2ccc(Cl)c(S(N)(=O)=O)c2)CCCCC1,inactive: -9.26%
4,COc1ccc(OP(C)(=O)Nc2cccc(Br)c2)cc1 (stereo unspecified),inactive: 14.4%
5,COc1ccc(NP(C)(=O)Oc2ccccc2OC)cc1 (stereo unspecified),inactive: 2.85%
6,CP(=O)(Nc1ccc2c(c1)OCCO2)Oc1ccccc1 (stereo unspecified),inactive: -0.48%
7,O=[N+]([O-])c1cc([N+](=O)[O-])c(C(F)(F)F)c([N+](=O)[O-])c1O,inactive: 8.38%
8,Cc1ccccc1NP(C)(=O)Nc1ccccc1C,inactive: -6.03%
9,CP(=O)(Nc1ccc(SC(F)(F)F)cc1)Oc1ccc(F)cc1 (stereo unspecified),inactive: 10.6%
10,CCOP(C)(=S)SCC(=O)NC(C)(CC)C(=O)O (stereo unspecified),inactive: 1.45%
11,O=C(OC1CN2CCC1CC2)c1ccc([N+](=O)[O-])cc1 (stereo unspecified),inactive: -17.6%
12,COc1ccc2c(c1O)-c1c(O)c(OC)cc3c1[C@H](C2)[N+](C)(C)CC3.O=[N+]([O-])c1cc([N+](=O)[O-])c([O-])c([N+](=O)[O-])c1[O-],inactive: -7.6%
13,O=[N+]([O-])c1cc([N+](=O)[O-])c(Nc2ccc(Cl)cc2)c([N+](=O)[O-])c1,inactive: 7.55%
14,CC(C)c1ccc(OP(C)(=O)Nc2ccc(SC(F)(F)F)cc2)cc1 (stereo unspecified),inactive: -6.11%
15,CP(=O)(Nc1ccccc1F)Oc1ccccc1 (stereo unspecified),inactive: -5.81%
16,O=C(OC1CN2CCC1CC2)c1ccccc1 (stereo unspecified),active: 47.4%
17,Cc1c([N+](=O)[O-])cc([N+](=O)[O-])c(Br)c1[N+](=O)[O-],inactive: -15.4%
18,O=[N+]([O-])c1cc([N+](=O)[O-])c(OC2CCCCC2O)c([N+](=O)[O-])c1 (stereo unspecified),inactive: -9.39%
19,CCCCCOc1ccc(NP(C)(=O)Oc2ccc(Cl)cc2Cl)cc1 (stereo unspecified),inactive: -2.56%
20,CP(=O)(Nc1ccccc1)Oc1ccc(F)cc1 (stereo unspecified),inactive: -22.9%
21,CCN(CC)CCCNc1ccccc1[N+](=O)[O-].O=[N+]([O-])c1cc([N+](=O)[O-])c(O)c([N+](=O)[O-])c1,inactive: 19.8%
22,COc1ccc(OP(C)(=O)Nc2ccc(SC(F)(F)F)cc2)cc1 (stereo unspecified),inactive: 2.62%
23,CCOC(=O)c1ccc(NP(C)(=O)Oc2ccc(F)cc2)cc1 (stereo unspecified),inactive: 2.74%
